Results reported in article PMC12640937, “Integrating drug effects on individual cardiac ionic currents and cardiac action potentials to understand nonclinical translation to clinical ECG changes” (Frontiers in Pharmacology, 2025).

The chains behind the UniProt entries cited, without tags or fusion partners. Where a name states a change or a piece, a line headed by the entry shows the natural chain unless it says otherwise. Residues count along the entry.
UniProt Q13936, 1-2138 isoform Q13936-12: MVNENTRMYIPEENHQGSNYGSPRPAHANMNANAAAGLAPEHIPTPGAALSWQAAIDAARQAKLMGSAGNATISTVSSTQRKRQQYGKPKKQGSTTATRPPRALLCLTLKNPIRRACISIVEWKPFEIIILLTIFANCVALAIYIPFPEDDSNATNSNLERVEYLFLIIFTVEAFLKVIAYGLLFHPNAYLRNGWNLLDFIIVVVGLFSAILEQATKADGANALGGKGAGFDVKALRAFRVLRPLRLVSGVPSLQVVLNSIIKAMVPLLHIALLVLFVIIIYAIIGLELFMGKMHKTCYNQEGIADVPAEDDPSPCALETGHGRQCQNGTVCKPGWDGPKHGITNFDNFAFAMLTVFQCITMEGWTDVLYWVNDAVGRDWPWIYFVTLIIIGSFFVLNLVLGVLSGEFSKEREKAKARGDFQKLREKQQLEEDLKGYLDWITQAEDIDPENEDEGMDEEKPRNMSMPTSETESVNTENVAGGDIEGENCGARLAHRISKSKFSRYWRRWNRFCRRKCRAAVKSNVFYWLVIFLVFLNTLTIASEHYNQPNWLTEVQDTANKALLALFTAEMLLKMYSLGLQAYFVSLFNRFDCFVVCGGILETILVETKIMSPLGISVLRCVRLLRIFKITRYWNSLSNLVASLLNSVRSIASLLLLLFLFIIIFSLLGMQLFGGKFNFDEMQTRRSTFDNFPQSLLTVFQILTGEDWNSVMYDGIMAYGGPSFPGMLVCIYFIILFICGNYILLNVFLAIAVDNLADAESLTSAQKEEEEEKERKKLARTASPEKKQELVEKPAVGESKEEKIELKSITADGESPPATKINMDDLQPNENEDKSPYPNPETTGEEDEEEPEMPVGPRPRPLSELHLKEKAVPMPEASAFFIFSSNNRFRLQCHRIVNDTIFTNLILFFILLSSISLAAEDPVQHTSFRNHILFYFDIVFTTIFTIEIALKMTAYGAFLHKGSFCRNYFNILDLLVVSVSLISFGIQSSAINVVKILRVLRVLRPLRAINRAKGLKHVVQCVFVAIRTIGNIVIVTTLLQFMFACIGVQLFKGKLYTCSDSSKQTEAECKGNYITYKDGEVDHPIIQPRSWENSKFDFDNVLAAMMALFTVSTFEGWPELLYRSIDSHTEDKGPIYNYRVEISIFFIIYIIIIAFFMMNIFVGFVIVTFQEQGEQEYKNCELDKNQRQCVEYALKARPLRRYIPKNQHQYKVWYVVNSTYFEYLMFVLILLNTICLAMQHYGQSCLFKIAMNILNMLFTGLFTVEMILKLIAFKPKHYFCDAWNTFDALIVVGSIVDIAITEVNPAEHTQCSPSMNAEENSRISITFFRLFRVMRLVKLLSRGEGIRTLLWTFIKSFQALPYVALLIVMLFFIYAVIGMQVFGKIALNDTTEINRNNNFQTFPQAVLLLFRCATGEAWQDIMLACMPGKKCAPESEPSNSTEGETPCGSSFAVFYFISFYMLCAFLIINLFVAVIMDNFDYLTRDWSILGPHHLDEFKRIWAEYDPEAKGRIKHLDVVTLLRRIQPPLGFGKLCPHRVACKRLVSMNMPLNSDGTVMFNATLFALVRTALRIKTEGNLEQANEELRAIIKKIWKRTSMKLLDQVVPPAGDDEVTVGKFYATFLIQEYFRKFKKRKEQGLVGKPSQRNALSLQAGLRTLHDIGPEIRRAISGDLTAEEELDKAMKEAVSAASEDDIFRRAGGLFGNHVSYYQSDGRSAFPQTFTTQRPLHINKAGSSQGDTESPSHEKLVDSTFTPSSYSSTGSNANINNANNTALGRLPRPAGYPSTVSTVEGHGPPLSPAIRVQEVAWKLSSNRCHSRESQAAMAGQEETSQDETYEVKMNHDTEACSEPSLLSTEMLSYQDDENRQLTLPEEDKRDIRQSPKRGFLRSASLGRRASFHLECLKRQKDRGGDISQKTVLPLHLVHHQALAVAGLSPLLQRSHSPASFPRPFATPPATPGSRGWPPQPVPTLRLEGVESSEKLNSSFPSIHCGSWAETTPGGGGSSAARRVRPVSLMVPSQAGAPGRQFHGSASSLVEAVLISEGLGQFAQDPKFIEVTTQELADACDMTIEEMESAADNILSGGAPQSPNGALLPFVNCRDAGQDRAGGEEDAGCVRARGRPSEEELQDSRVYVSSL

Target: ICaL (CHO cells expressing hCaV1.2 α1C, β2, α2δ1 subunits) (Homo sapiens, UniProt Q13936)
Test: cell-based

Molecule `Cc1cccc(C)c1OCC(C)N` (stereo not shown) [mexiletine] has an IC50 of 22.6 µM.
